Patent US20060281897A1, “Potentialization of the activation of high molecular weight prodrugs” (priority 2003, published 2006)

What was measured:
[1] = test system: LS-174T human colorectal adenocarcinomas xenografts; conditions: 80 μmol/kg, 30 minute i.v. infusion; sampling 1, 3, 6, 24 hours
[2] = test system: LS-174T human colon cancer xenografts; assay: In vivo tumor reactivation of PEGylated prodrug derivatives (Dox and Leu-Dox accumulated in tumor); conditions: i.v. bolus 69 μmol/kg, LS-174T tumor
[3] = test system: peptidases secreted by LS-174T tumor cells; assay: Reactivation (hydrolysis) of prodrugs in medium conditioned by LS-174T tumor cells, HPLC; conditions: LS-174T conditioned medium, compound 20 μM, 6 hours, 37° C.
[4] = test system: peptidases secreted by MCF-7/6 tumor cells; assay: Reactivation (hydrolysis) of prodrugs in medium conditioned by MCF-7/6 tumor cells, HPLC; conditions: MCF-7/6 conditioned medium, compound 20 μM, 6 hours, 37° C.

Row | Substance | time after infusion at which Leu-doxorubicin and doxorubicin are detected in tumor [1] [h] | DOX concentration in tumor ([2]; 2 hours after injection) [nmol/mg] | Leu-DOX concentration in tumor ([2]; 2 hours after injection) [nmol/mg] | DOX concentration in tumor ([2]; 72 hours after injection) [nmol/mg] | Leu-DOX concentration in tumor ([2]; 72 hours after injection) [nmol/mg] | DOX concentration reached [3] [µM] | L-DOX concentration reached [3] [µM] | DOX concentration reached [4] [µM] | L-DOX concentration reached [4]
1 | PEG30,000-Ala-Leu-Ala-Leu-Doxorubicin [PEG30,000-ALAL-Dox] | 6 | – | – | – | – | – | – | – | –
2 | PEG2000-beta-Ala-Leu-Ala-Leu-doxorubicin [PEG2000-beta-ALAL-Dox] | – | 0.38 | 0.78 | 1.71 | 0.12 | 0.00 | 1.31 | 0.00 | 0.69 + μM
